A word on the IC50: it is the midpoint of a concentration-inhibition curve.

The chains behind the UniProt entries cited, without tags or fusion partners. Residues count along the entry.
UniProt P16581, 22-175 limits assumed: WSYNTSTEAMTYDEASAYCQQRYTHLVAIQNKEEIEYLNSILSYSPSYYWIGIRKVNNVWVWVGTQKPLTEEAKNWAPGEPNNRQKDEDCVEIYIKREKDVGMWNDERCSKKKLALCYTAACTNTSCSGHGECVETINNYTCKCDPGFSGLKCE

The text below walks through data of patent publication US11332491B2, “E-selectin antagonist compounds, compositions, and methods of use” (GLYCOMIMETICS, INC., priority 2011, dated 2022).

In the test the target is E-selectin (Homo sapiens, UniProt P16581). Put plainly: E-selectin competitive binding assay (sLe^a polyacrylamide conjugate vs immobilized E-selectin/Ig chimera). Particulars: read-out: IC50 (E-Selectin Antagonist Activity). An excerpt: An inhibition assay may be used to screen for antagonists of E-selectin. For example, an assay may be performed to characterize the capability of a compound or other agent described herein to inhibit (i.e., reduce, block, decrease, or prevent in a statistically or biologically significant manner) interaction of E-selectin with sLe^a or sLe^x. The inhibition assay may be a competitive binding assay, which allows the determination of IC50 values. […] Variations of such steps can be readily and routinely accomplished by a person of ordinary skill in the art. […]
To determine the amount of sLe^a bound to immobilized E-selectin after washing, the peroxidase substrate, 3,3′,5,5′ tetramethylbenzidine (TMB) was added. After 3 minutes, the enzyme reaction was stopped by the addition of H3PO4, and the absorbance of light at a wavelength of 450 nm was determined.

For `CCC1CC(C(=O)NCCNC(=O)CCOCCOCCOCCOCCOCCOCCOCCOCCOCCOCCOCCOC)CC(OC2OC(CO)C(O)C(OC(CC3CCCCC3)C(=O)N(C)C)C2NC(C)=O)C1OC1OC(C)C(O)C(O)C1O` (stereo not shown), the 50% inhibitory concentration (IC50) is under 4 µM.
